In the library only some 0.53% were active in any assay of this set; here they are far more common.
Rango-impB inh: inhibitors of Rango-importin beta complex formation. Q14974. Rango CFP/YFP FRET sensor + importin beta, 45 min. Potency, µM (top dose mostly 92.2 µM), for inactives: at the top dose inhibition of complex formation. hit rate 0.031% among 340,000;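 note: potency is the fitted concentration of half-maximal effect; 0% = DMSO wells and 100% = buffer wells lacking importin beta; nearly all actives have a fitted effect of over 15% in size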
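FRET biosensor (snurportin 1 IBB flanked by EYFP and cerulean), 50 nM, with compound 5 min, then 0.125 microM importin beta in PBS, 1 mM DTT, 0.02% Tween-20, 0.1% BSA. CFP/YFP ratio read after 45 min at room temperature; pre-read flags interference.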
CCT chaperon mod: changes cytosolic chaperonin activity; activity change, % (concentration not given with the values), hits read low; hit rate 0.3% among 360,000; AID 651819; purified chaperonin ATPase assay, HTRF ADP detection, 30 min; in the data active = activity change below about -30%; note: % is set by controls: 0 for no effect and ±100 for the full control effect
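TRiC at 40 or 20 nM final (batch-dependent) in 30 mM Tris pH 7.4, 100 mM KCl, 5 mM MgCl2, 1 mM DTT, with compound at single 76 uM and 10 uM ATP, 30 min at 37 deg C. ADP detected by HTRF Transcreener, 665/615 ratio.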
Rango release inh: inhibitors of RanGTP-induced Rango-importin beta complex dissociation | O95149+P62826 | Biochemical FRET Rango-importin beta, RanGTP-induced dissociation | Potency, µM (highest dose often 46.1 µM), without a hit: top-dose activity change, negative = inhibition | hit rate 0.071% among 340,000 | AID 540253; note: potency is the fitted concentration of half-maximal effect; % of control where 0% means no effect; nearly all actives have a fitted effect of over 45% in size
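Rango/importin beta premix (0.1/0.25 uM final), PBS + 1 mM DTT + 0.02% Tween-20 + 0.1% BSA; cpd 5 min RT; FRET pre-read; + RanGTP-RCC1 (0.6 uM Ran, 2 mM GTP, 0.2 uM RCC1); 45 min RT; FRET post-read, ex 430, em 486/530 nm.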
MmCpn inh: blocks the Methanococcus maripaludis chaperonin Mm-Cpn; purified Mm-Cpn ATPase, ADP Transcreener TR-FRET; Potency, µM (doses to about 76.9 µM), for the others: at the top dose activity, negative = inhibition, hits mostly inhibitors; hit rate 0.031% among 330,000; active = well fitted inhibition curve with a large enough effect; inconclusive = small, poorly fitted or top-dose-only effect; note: potency is the fitted concentration of half-maximal effect; % is set by controls: 0 for no effect and ±100 for the full control effect; nearly all actives have a fitted effect of over 80% in size
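Quantitative HTS used 25 nM Mm-CPN and 10 uM ATP in magnesium/KCl Tris buffer, pH 7.4, with 1 mM DTT. Hydrolysis ran 30 min at 37°C; ADP was read by HTRF.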
Giardia killer: kills Giardia lamblia. Giardia lamblia trophozoite viability. activity change, % at 7.66 µM, hits read low. hit rate 0.15% among 340,000. AID 540267; in the data active = activity change below about -80%; inconclusive = between about -30% and that limit;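 note: parasites exposed to compound for two days anaerobically before the ATP read; % is set by controls: 0 for no effect and ±100 for the full control effect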
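Compounds were tested on trophozoites seeded at 100 cells/well and held 48 hrs at 37 deg C anaerobically. An ATP-based luminescent kit measured the remaining live cells.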
* = called active by the depositor; ? = inconclusive; . = no result. Unless noted, calls come from the whole dose curve.

cpd	compound	Rango-impB inh	CCT chaperon mod	MmCpn inh
1	Cc1cc2oc(=O)cc(Cn3ncc(Cl)c(Cl)c3=O)c2cc1Cl	1.1%	-48.5*	-1.8%
2	CCCC(C)c1nc(C(N)=O)c2[nH]c(=O)n(-c3ccc(OC)cc3OC)c2n1 (configuration not stated)	0.9%	-78.0*	0.1%
3	CC(=O)N1CCN(C2=NC(=O)/C(=C/c3ccc(OS(=O)(=O)c4ccccc4)cc3)S2)CC1	0.6%	-79.0*	-5.9%
4	CSCC(=O)N1CCC(CCC(=O)NC2CC2)CC1	4.3%	-53.0*	-0.3%
5	CCN(CC)c1ccc2cc(-c3nc4ccccc4[nH]3)c(=O)oc2c1	?	-0.4	-0.2%
6	CC(=O)Nc1ccn(C2CC3OCC(NC(=O)C(Cc4ccccc4)NC(=O)OC(C)(C)C)C3O2)c(=O)n1 (configuration not stated)	.	.	.
7	O=C(NCCO)c1cc2cc(Cl)cc(Cl)c2oc1=O	?	-1.3	1.5%
8	COCCNC(=O)c1cc2cc(Cl)cc(Cl)c2oc1=O	2.0%	-0.8	-3.5%
9	O=C(NCc1ccccn1)Nc1cccc(Cl)c1	0.0%	-42.5*	-2.2%
10	Cc1cc(Cc2ccc(N)c(C)c2)ccc1N	1.7%	-2.2	-2.7%

cpd	Rango release inh	Giardia killer
1	6.0%	21.5
2	-7.9%	-12.9
3	1.2%	21.0
4	-13.9%	-7.2
5	?	-108.2*
6	.	-8.6
7	18.4µM*	-18.3
8	-1.7%	-27.2
9	4.5%	-6.2
10	-8.0%	17.2

(listing goes on)
cpd	compound	Rango-impB inh	CCT chaperon mod	MmCpn inh
11	Cc1cc(Cc2cc(C)c(O)c(CO)c2)cc(CO)c1O	65.1µM*	-6.1	.
12	COc1cccc(C(=O)Oc2c(Br)cc(Br)cc2/C=N/NC(=O)c2cc(C)[nH]n2)c1	?	-2.7	-2.8%
13	Cc1cc(C(=O)N/N=C/c2cccc(OC(=O)c3cccc(Br)c3)c2)n[nH]1	4.4%	-1.1	1.9%
14	C=CCNC(=O)/C(=C\c1ccc(OC)cc1)NC(=O)c1ccc([N+](=O)[O-])cc1	-0.7%	-35.0*	2.2%
15	O=C(CNC(=O)c1ccccc1)OCC(=O)c1cccc2ccccc12	.	.	.
16	C/C(=N\Nc1cc(-c2ccccc2)nc(-c2ccc(Br)cc2)n1)c1cccc(N)c1	-1.2%	-65.4*	.
17	C/C(=N/Nc1cc(-c2ccccc2)nc(-c2ccccc2)n1)c1ccc(O)cc1	0.0%	-2.4	-0.6%
18	CN(Cc1ccco1)c1ncnc2ccc(-c3cccc(Cl)c3)cc12	.	.	0.6%
19	COc1cccc(NC(=O)CN(C)C(=O)c2cc(C)oc2C)c1	-3.0%	-30.5*	-0.1%
20	CCCC/C=C/[C@H](c1ccccc1)[C@H](CO)Cc1ccccc1	.	.	.

cpd	Rango release inh	Giardia killer
11	8.5%	-2.2
12	18.4µM*	-4.8
13	19.7%	-9.3
14	6.9%	8.8
15	.	6.2
16	-5.6%	1.8
17	34.8%	19.7
18	.	.
19	0.2%	2.0
20	.	-3.1

Single records, from the list above.
C=CCNC(=O)/C(=C\c1ccc(OC)cc1)NC(=O)c1ccc([N+](=O)[O-])cc1 as listed: Rango-impB inh = -0.7%; CCT chaperon mod = -35.0*; MmCpn inh = 2.2%; Rango release inh = 6.9%; Giardia killer = 8.8
Cc1cc(Cc2cc(C)c(O)c(CO)c2)cc(CO)c1O as listed: Rango-impB inh = 65.1µM*; CCT chaperon mod = -6.1; MmCpn inh = .; Rango release inh = 8.5%; Giardia killer = -2.2

(cont.)
cpd	compound	Rango-impB inh	CCT chaperon mod	MmCpn inh
21	CC(=O)Nc1ccc(SCCN2CCN(CCc3ccccc3)CCC2=O)cc1	.	.	.
22	Cc1cc2nc3ccc(=[N+](C)C)cc-3sc2cc1N	-0.5%	2.6	31.6µM*
23	CCCN1CNc2c(c(=O)[nH]c(=S)n2CCc2c(Cl)cccc2Cl)C1	.	.	.
24	CCNc1nc(NCC)nc(-n2cc(C(=O)c3cc(Cl)ccc3O)cn2)n1	.	.	.
25	CCc1ccc(-c2cc(C)no2)cc1S(=O)(=O)N1CC(=O)Nc2ccccc21	3.0%	-1.3	1.6%
26	COc1ccc(-c2cc(C)no2)cc1S(=O)(=O)N1CCOc2ccccc21	-0.6%	-81.1*	-8.8%
27	Cc1cc(-c2ccc(C)c(S(=O)(=O)N3CC(=O)Nc4ccccc43)c2)on1	?	-34.8*	0.2%
28	Cc1cc(-c2ccc(C(C)C)c(S(=O)(=O)N3CCOc4ccccc43)c2)on1	-1.4%	1.5	0.4%
29	C=CCNC(=S)NNc1nc(N2CCCC2)nc(N2CCCC2)n1	-0.4%	-53.9*	-0.5%
30	CCOc1cc(C2Nc3ccccc3C(=O)N2Cc2ccco2)ccc1OCc1ccccc1Cl (configuration not stated)	.	.	.
31	O=[N+]([O-])c1cccc(/C=C/c2nc[nH]c2[N+](=O)[O-])c1	-1.2%	0.3	2.3%
32	CC1(C)COC(/C=C/c2cccc([N+](=O)[O-])c2)=N1	-1.8%	-39.0*	-3.3%
33	COC(=O)CCN(Cc1ccco1)S(=O)(=O)c1ccc(F)cc1Br	.	.	.

cpd	Rango release inh	Giardia killer
21	.	13.9
22	12.3%	39.2
23	.	-7.6
24	.	-3.5
25	40.1%	21.7
26	1.1%	-5.9
27	?	-14.6
28	-11.8%	2.2
29	5.7%	?
30	.	18.7
31	13.9%	-81.5*
32	10.6%	0.2
33	.	9.6

Part of the list above, limited to Giardia killer, CCT chaperon mod and Rango release inh:
| item | compound | Giardia killer | CCT chaperon mod | Rango release inh |
| --- | --- | --- | --- | --- |
| 23 | CCCN1CNc2c(c(=O)[nH]c(=S)n2CCc2c(Cl)cccc2Cl)C1 | -7.6 | . | . |
| 29 | C=CCNC(=S)NNc1nc(N2CCCC2)nc(N2CCCC2)n1 | ? | -53.9* | 5.7% |

Screening data deposited in PubChem by National Center for Advancing Translational Sciences (NCATS).
